Columns and labels:
Assay type in all cases: biochemical
E. coli GroEL/ES [1] = molecular target: T1, E. coli GroEL/ES (Escherichia coli, UniProt P0A6F5); assay: GroEL/ES-mediated dMDH refolding assay
T1 construct: made in house; host or cells: GroEL in NEB 5-alpha E. coli; GroES in E. coli BL21 (DE3)
Experimental: Evaluating compounds for inhibition in the GroEL/ES-mediated dMDH refolding assay. All compounds were evaluated for inhibiting E. coli GroEL/ES-mediated refolding of the denatured MDH reporter enzyme. Reagent preparation: For these assays, four primary reagent stocks were prepared: 1) GroEL/ES-dMDH binary complex stock; 2) ATP initiation stock; 3) EDTA quench stock; 4) MDH enzymatic assay stock. Denatured MDH (dMDH) was prepared by 2-fold dilution of MDH (5 mg/ml, soluble pig heart MDH from Roche, product #10127248001) with denaturant buffer (7 M guanidine-HCl, 200 mM Tris, pH 7.4, and 50 mM DTT). MDH was completely denatured by incubating at room temperature for >45 min. […]
Assay Protocol: First, 30 μL aliquots of the GroEL/ES-dMDH binary complex stocks were dispensed into clear, 384-well polystyrene plates. […] A340 nm measurements were recorded at 0.5 minutes (start point) and at successive time points until the amount of NADH consumed reached ˜90% (end point, generally between 20-35 minutes).
Evaluating analogs for inhibiting GroEL/ES-mediated substrate refolding functions. […] We first evaluated all test compounds in our standard GroEL/ES-mediated refolding assays that employ either malate dehydrogenase (MDH) or rhodanese (Rho) as the denatured substrate reporter enzymes. […]

Chains of the proteins cited; added tags and fusions are not shown. Residues count along the entry.
UniProt P0A6F5, 2-548: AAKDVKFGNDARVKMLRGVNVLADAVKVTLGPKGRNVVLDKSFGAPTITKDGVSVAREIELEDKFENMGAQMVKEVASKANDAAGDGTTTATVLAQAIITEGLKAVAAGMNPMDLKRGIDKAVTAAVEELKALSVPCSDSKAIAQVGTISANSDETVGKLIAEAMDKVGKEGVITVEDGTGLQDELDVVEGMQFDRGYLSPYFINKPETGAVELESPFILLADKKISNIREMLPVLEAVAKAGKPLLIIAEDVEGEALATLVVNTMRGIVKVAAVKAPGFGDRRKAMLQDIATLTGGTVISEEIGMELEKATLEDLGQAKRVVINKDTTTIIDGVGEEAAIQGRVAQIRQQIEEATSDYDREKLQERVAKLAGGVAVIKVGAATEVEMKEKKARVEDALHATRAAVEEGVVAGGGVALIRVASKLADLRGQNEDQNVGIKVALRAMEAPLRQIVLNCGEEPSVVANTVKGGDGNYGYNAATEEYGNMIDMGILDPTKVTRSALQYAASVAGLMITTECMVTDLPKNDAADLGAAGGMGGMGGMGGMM

E. coli GroEL/ES [2] = molecular target: T1, E. coli GroEL/ES; assay: GroEL/ES-mediated dMDH refolding assay in the presence of E. coli NfsB nitroreductase
Experimental: Evaluating compounds for inhibition in the GroEL/ES-mediated dMDH refolding assay and native MDH activity counter-screen in the presence of E. coli NfsB nitroreductase. These assays were performed nearly identically to those mentioned above, but with a couple distinct modifications. For both assays, 10 μg/mL of the E. coli NfsB nitroreductase enzyme (Sigma product #N9284) was added to the initial GroEL/ES-dMDH solution. For the GroEL/ES-dMDH refolding assay, after stamping with compounds, 10 μL of a 2.4 mM NADH solution was added, followed by a 10 minute incubation period at 37° C. to bioactivate the nitrofuran analogs. The remainder of the assay was conducted as in our standard protocol where no NfsB nitroreductase was present. […] For the native MDH activity counter-screen in the presence of E. coli NfsB nitroreductase, the assay was performed as described above for the GroEL/ES-dMDH refolding assay with NfsB; however, compound addition to the assay plates was conducted after the EDTA quench step, followed by a 10 minute incubation period at 37° C. to bioactivate the nitrofuran analogs. […] Results presented represent the averages of IC50 values obtained from at least four replicates in each assay.
Evaluating analogs for inhibiting GroEL/ES-mediated substrate refolding functions in the presence of the E. coli NfsB type-1 nitroreductase. […]

E. coli GroEL/ES [3] = molecular target: T1, E. coli GroEL/ES; assay: GroEL/ES-mediated dRho refolding assay
Experimental: Evaluating compounds for inhibition in the GroEL/ES-mediated dRho refolding assay. Reagent preparation: For this assay, five primary reagent stocks were prepared: 1) GroEL/ES-dRho binary complex stock; 2) ATP initiation stock; 3) thiocyanate enzymatic assay stock; 4) formaldehyde quench stock; 5) ferric nitrate reporter stock. Denatured rhodanese (dRho) was prepared by 3-fold dilution of rhodanese (Roche product #R^1756, diluted to 10 mg/mL with H2O) with denaturant buffer (12 M Urea, 50 mM Tris-HCl, pH 7.4, and 10 mM DTT). Rhodanese was completely denatured by incubating at room temperature for >45 min. […]
Assay Protocol: First, 10 μL aliquots of the GroEL/ES-dRho complex stock were dispensed into clear, flat-bottom 384-well polystyrene plates. […] The reporter reaction was quenched by adding 10 μL of the formaldehyde quench stock, and then 40 μL of the ferric nitrate reporter stock was added to quantify the amount of thiocyanate produced during the enzymatic reporter reaction, which is proportional to the amount of dRho refolded by GroEL/ES. After incubating at room temperature for 15 min, the absorbance by Fe(SCN)3 was measured at 460 nm using a Molecular Devices SpectraMax Plus384 microplate reader. […]

E. coli GroEL = molecular target: T2, E. coli GroEL (Escherichia coli, UniProt P0A6F5); assay: GroEL-mediated ATPase assay
T2 construct: made in house; host or cells: NEB 5-alpha E. coli
Experimental: Evaluating compounds for inhibition in the GroEL-mediated ATPase assay. All compounds were evaluated for inhibiting E. coli GroEL-mediated ATPase activity as per our previously reported procedure although employing only GroEL in solution and not containing GroES or denatured MDH. Evaluating compounds for inhibition in the GroEL-mediated ATPase assay.
Reagent preparation: For this assay, four primary reagent solutions were prepared: 1) GroEL protein solution; 2) ATP initiation solution; 3) EDTA quench solution; 4) malachite green reporter solution. […]
Assay Protocol: First, 10 μL aliquots of the GroEL protein solution were dispensed into clear, flat-bottom 384-well polystyrene plates. […] The absorbance of the malachite green-phosphate complex was measured at 600 nm using a Molecular Devices SpectraMax Plus384 microplate reader. A second set of baseline control plates were prepared analogously, but without GroEL protein solution, to correct for possible interference from compound absorbance or turbidity. […]
Evaluating analogs for inhibiting GroEL-mediated ATPase activity. […] Malachite green was then added to the assay to bind and detect free phosphates in solution (absorbance detection at k=600 nm). If analogs inhibited ATPase activity, then there would be no free phosphates for malachite green to bind, leading to minimal absorbance at 600 nm.

O=C(N/N=C/c1ccc([N+](=O)[O-])o1)c1ccccc1Oc1ccccc1 [Compound 23, N′-((5-nitrofuran-2-yl)methylene)-2-phenoxybenzohydrazide]
IC50 (E. coli GroEL/ES [1]): 85 µM
IC50 (E. coli GroEL/ES [2]): 8.3 µM
IC50 (E. coli GroEL/ES [3]): 83 µM
IC50 (E. coli GroEL): > 250 µM

— patent US20220009914A1, “Analogs of Nitrofuran Antibiotics to Combat Resistance” (The Trustees of Indiana University, priority 2020, published 2022)
